The values that follow come from US20100105877A1.

The target of this assay is GLP-1 receptor on RIN-m5F rat insulinoma cells (Rat) (UniProt P32301). The assay is described as follows: cell-based or functional assay.
CA exendin-4(Lys27)-PEG-Fc gave an In vitro titer (%): cAMP EC50 in RIN-m5F cells, relative to exendin-4 of 8.5%. To DA exendin-4(Lys27)-PEG-Fc belongs 13.2%; to “DA exendin-4(Lys27)-PEG-albumin (from UniProt P02768)”, 2%; to DM exendin-4(Lys27)-PEG-Fc, 2.6%.

The substance Exendin-4(Lys27)-PEG-Fc yielded an In vitro titer (%): cAMP EC50 in RIN-m5F cells, relative to exendin-4 of 13.2%.

The substance Exendin-4(N)-PEG-Fc yielded an In vitro titer (%): cAMP EC50 in RIN-m5F cells, relative to exendin-4 of less than 0.2%. As for HY exendin-4(Lys27)-PEG-Fc, the figure is 7.6%.
